In ChEMBL document CHEMBL1126850, “Examination of the D2/5-HT2 affinity ratios of resolved 5,6,7,8,9,10-hexahydro-7,10-iminocyclohept[b]indoles: an enantioselective approach toward the design of potential atypical antipsychotics” (J Med Chem, 1993) one finds Ki data, which are given here for one molecule.

Protein sequences, listed by entry. Tags and fused reporters are not part of them. Lines headed by an entry give the natural chain unless they say otherwise; changes in a name come on top.
UniProt P30994: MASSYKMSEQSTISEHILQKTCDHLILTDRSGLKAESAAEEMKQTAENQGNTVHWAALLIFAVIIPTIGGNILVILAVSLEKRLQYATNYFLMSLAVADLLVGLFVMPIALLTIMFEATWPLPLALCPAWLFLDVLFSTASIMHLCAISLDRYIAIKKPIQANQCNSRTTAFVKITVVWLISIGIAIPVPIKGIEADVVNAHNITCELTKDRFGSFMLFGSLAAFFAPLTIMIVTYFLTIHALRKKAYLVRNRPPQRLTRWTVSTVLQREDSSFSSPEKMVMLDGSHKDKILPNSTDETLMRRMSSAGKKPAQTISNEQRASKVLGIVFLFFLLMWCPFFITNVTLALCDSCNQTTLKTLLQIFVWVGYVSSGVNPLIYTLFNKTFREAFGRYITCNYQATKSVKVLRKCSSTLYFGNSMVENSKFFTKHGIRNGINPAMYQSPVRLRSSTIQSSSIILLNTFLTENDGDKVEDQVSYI
UniProt P08909: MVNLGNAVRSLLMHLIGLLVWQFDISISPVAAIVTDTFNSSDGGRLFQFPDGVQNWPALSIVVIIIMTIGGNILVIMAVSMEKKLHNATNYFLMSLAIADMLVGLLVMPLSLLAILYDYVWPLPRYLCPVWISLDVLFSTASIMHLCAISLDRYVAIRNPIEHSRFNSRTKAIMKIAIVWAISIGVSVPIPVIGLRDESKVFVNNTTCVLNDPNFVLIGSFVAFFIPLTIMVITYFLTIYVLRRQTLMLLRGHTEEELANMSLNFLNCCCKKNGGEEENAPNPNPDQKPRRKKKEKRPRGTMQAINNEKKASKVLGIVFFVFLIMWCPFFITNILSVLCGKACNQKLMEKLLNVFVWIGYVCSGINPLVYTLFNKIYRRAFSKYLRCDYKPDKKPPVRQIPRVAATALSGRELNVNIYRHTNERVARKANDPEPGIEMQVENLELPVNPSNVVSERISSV
UniProt P14842: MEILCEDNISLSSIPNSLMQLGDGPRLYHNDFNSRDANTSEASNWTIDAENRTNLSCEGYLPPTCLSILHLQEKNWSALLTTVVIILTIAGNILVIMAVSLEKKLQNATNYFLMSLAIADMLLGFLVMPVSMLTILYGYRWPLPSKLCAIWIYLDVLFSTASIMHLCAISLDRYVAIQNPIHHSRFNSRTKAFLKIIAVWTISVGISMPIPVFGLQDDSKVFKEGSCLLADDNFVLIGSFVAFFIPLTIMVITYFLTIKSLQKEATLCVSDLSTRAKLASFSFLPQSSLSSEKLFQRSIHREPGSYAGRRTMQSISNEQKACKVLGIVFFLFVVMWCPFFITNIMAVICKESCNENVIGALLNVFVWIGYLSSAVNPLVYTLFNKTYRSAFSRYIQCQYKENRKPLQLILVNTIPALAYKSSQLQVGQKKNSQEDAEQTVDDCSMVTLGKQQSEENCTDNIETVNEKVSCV

Broadly, the Ki is the dissociation constant of the complex between target and ligand, obtained from inhibition or displacement. A higher Ki goes with lower affinity.

The target in the experiment is Serotonin 2 (5-HT2) receptor (Rattus norvegicus, UniProt P30994+P08909+P14842). In words: In vitro binding affinity towards 5-hydroxytryptamine 2 receptor in rat striatal membranes by [3H]ketanserin displacement. In kind it is cell membranes, Striatum, Membrane.

`Cc1nc2sccn2c(=O)c1CCN1CCC(=C(c2ccc(F)cc2)c2ccc(F)cc2)CC1` [RITANSERIN] gave an inhibitory constant (Ki) of 0.61 nM.
